Laboratory results as given in patent publication US11332499B2, “Cyclic peptides and methods of use thereof” (Regents of the University of Minnesota, priority 2018, dated 2022).

The chains behind the UniProt entries cited, without tags or fusion partners.
UniProt P32245, whole entry: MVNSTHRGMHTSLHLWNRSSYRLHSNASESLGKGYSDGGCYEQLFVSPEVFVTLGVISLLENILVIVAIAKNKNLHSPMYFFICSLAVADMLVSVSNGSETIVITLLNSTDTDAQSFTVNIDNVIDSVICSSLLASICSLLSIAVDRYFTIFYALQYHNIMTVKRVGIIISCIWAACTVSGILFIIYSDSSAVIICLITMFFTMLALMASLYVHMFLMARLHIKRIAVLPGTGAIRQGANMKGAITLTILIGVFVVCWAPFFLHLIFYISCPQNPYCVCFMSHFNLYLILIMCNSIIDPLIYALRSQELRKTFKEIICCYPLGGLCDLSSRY

Assays:
Parameters in all cases: expressed in transfected cells
MC4R [1] = molecular target: T1, MC4R (Homo sapiens, UniProt P32245); assay: AlphaScreen cAMP assay, inverse agonist activity at hMC4R; format: cell-based; conditions: Table 10; apparent potency; none = no inverse agonist activity
MC4R [2] = molecular target: T1, MC4R; assay: Competitive radioligand binding, displacement of 125I-NDP-MSH, HEK293 cells expressing hMC4R
MC4R [3] = molecular target: T1, MC4R; assay: Competitive radioligand binding, displacement of 125I-AGRP, HEK293 cells expressing hMC4R
MC4R [4] = molecular target: T1, MC4R; assay: AlphaScreen cAMP assay, antagonist activity (Schild, NDP-MSH) at hMC4R; format: cell-based; conditions: Table 10
[5] = Table 10; read-out: hMC4R 125I-AGRP IC50

Substance	EC50 (MC4R [1])	IC50 (MC4R [2]; Table 10; read-out: hMC4R 125I-NDP-MSH IC50)	IC50 (MC4R [3]; [5])	hMC4R Antagonist pA2 (MC4R [4])	IC50 (MC4R [2]; read-out: hMC4R 125I-NDP-MSH IC50; Table 10)	IC50 (MC4R [3]; read-out: hMC4R 125I-AGRP IC50; Table 10)
c[Pro-Arg-Phe-Phe-DDap-Ala-Phe-DPro] [Peptide 9 (Example 1)]	4 ± 2 nM	16 ± 1 nM	11 ± 4 nM	–	–	–
c[Pro-Arg-Phe-Phe-Dap-Ala-Phe-DPro] [Peptide 2 (Example 1)]	3.4 ± 1.9 nM	–	11 ± 1 nM	8.81 ± 0.02	–	–
c[Pro-Arg-Phe-Phe-His-Ala-Phe-DPro] [Peptide 10 (Example 1)]	–	–	–	–	120 ± 50 nM	44 ± 7 nM
